These results are taken from patent US20260224597A1, “METHODS FOR ACTIVATING IMMUNE CELLS TO KILL BACTERIA” (The Texas A&M University System, priority 2023, published 2026).

The test system of one data set is IP6K. Conditions: indirect, through interaction with PI3K (LY 294002), PI4K (PAO) or PLC (U73122); cited from earlier work.
The subject of another data set is human macrophages. Conditions: macrophages treated with GM-CSF, all tested concentrations, 24 hours of incubation.

For “1-[6-((17β-3-Methoxyestra-1,3,5(10)-trien-17-yl)amino)hexyl]-1H-pyrrole-2,5-dione”, the IP6K activity result in the data set on IP6K is “decreases IP6K activity”.
For `O=[As]c1ccccc1` (stereo not drawn), the IP6K activity entry with IP6K is recorded as “decreases IP6K activity”.
Take “(1R*,2S*)-4-[2-Chloro-6-(methylamino)-9H-purin-9-yl]-2-(phosphonooxy)bicyclo[3.1.0]hexane-1-methanol dihydrogen phosphate ester diammonium salt”: the “metabolic activity of macrophages” value in the data set with human macrophages is “None of the concentrations of MRS2279 and gallein significantly altered”.
